From patent US20260382616A1, “TREATMENT METHODS FOR SUBJECTS WITH NON-SMALL CELL LUNG CANCER HAVING AN ABERRATION IN EGFR” (published 2026)

Assay: Phase 1/2a study, safety
[1] = 150 mg BID (N=11), regardless of grade

C=CC(=O)N[C@H]1C=C(C)c2c(-c3cnc4ccccc4c3)c3c(N)ncnc3n2C1
DLTs (100 mg dose level): 1/39
Pneumonitis, grade (100 mg patient, confounded by CPI and concurrent hydropneumothorax contralateral lung): grade 3
Pneumonitis, grade (100 mg patient, treated with steroids, resolution, continued therapy): grade 1 (to be upgraded as grade 2)
Treatment-related discontinuations (150 mg): two
Dose reductions (150 mg BID): 3/11
Grade 3 or 4 ALT/AST increase (150 mg BID): one
Pneumonitis possibly related (150 mg BID): one
TEAE ≥Grade 3 ALT increased (150 mg BID (N=11)): 1 (9.1) No (%)
TEAE ≥Grade 3 AST increased (150 mg BID (N=11)): 1 (9.1) No (%)
TEAE ≥Grade 3 anemia (150 mg BID (N=11)): 2 (18.2) No (%)
TEAE ≥Grade 3 diarrhea (150 mg BID (N=11)): 2 (18.2) No (%)
TEAE ≥Grade 3 disease progression (150 mg BID (N=11)): 0 No (%)
TEAE ≥Grade 3 dyspnea (150 mg BID (N=11)): 0 No (%)
TEAE ≥Grade 3 pneumonia (150 mg BID (N=11)): 0 No (%)
TRAE AST increased, number (150 mg BID (N=11), all grade): 2
TRAE AST increased, percent (150 mg BID (N=11), all grade): (18) %
TRAE alopecia, number (150 mg BID (N=11), all grade): 0
TRAE anemia, number (150 mg BID (N=11), all grade): 2
TRAE anemia, percent (150 mg BID (N=11), all grade): (18) %
TRAE decreased appetite, number (150 mg BID (N=11), all grade): 0
TRAE diarrhea, number (150 mg BID (N=11), all grade): 4
TRAE diarrhea, percent (150 mg BID (N=11), all grade): (36) %
TRAE dry eye, number (150 mg BID (N=11), all grade): 1
TRAE dry eye, percent (150 mg BID (N=11), all grade): (9) %
TRAE dry skin, number (150 mg BID (N=11), all grade): 0
TRAE fatigue, number (150 mg BID (N=11), all grade): 2
TRAE fatigue, percent (150 mg BID (N=11), all grade): (18) %
TRAE nausea, number (150 mg BID (N=11), all grade): 3
TRAE nausea, percent (150 mg BID (N=11), all grade): (27) %
TRAE paronychia, number (150 mg BID (N=11), all grade): 5
TRAE paronychia, percent (150 mg BID (N=11), all grade): (45) %
TRAE rash, number (150 mg BID (N=11), all grade): 7
TRAE rash, percent (150 mg BID (N=11), all grade): (64) %
TRAE stomatitis, number (150 mg BID (N=11), all grade): 3
TRAE stomatitis, percent (150 mg BID (N=11), all grade): (27) %
TRAE AST increased, number (150 mg BID (N=11), grade ≥3): 1
TRAE AST increased, percent (150 mg BID (N=11), grade ≥3): (9.1) %
TRAE alopecia, number (150 mg BID (N=11), grade ≥3): 0
TRAE anemia, number (150 mg BID (N=11), grade ≥3): 2
TRAE anemia, percent (150 mg BID (N=11), grade ≥3): (18.2) %
TRAE decreased appetite, number (150 mg BID (N=11), grade ≥3): 0
TRAE diarrhea, number (150 mg BID (N=11), grade ≥3): 2
TRAE diarrhea, percent (150 mg BID (N=11), grade ≥3): (18) %
TRAE dry eye, number (150 mg BID (N=11), grade ≥3): 0
TRAE dry skin, number (150 mg BID (N=11), grade ≥3): 0
TRAE fatigue, number (150 mg BID (N=11), grade ≥3): 0
TRAE nausea, number (150 mg BID (N=11), grade ≥3): 0
TRAE paronychia, number (150 mg BID (N=11), grade ≥3): 0
TRAE rash, number (150 mg BID (N=11), grade ≥3): 1
TRAE rash, percent (150 mg BID (N=11), grade ≥3): (9) %
TRAE stomatitis, number (150 mg BID (N=11), grade ≥3): 1
TRAE stomatitis, percent (150 mg BID (N=11), grade ≥3): (9) %
TEAE ALT increased, number (percent) [1]: 2 (18.2)
TEAE AST increased, number (percent) [1]: 2 (18.2)
TEAE alopecia, number (percent) [1]: 0
TEAE anemia, number (percent) [1]: 3 (27.3)
TEAE arthralgia, number (percent) [1]: 3 (27.3)
TEAE constipation, number (percent) [1]: 0
TEAE cough, number (percent) [1]: 2 (18.2)
TEAE decreased appetite, number (percent) [1]: 1 (9.1)
TEAE diarrhea, number (percent) [1]: 4 (36.4)
TEAE dizziness, number (percent) [1]: 2 (18.2)
TEAE dry eye, number (percent) [1]: 1 (9.1)
TEAE dry skin, number (percent) [1]: 1 (9.1)
TEAE dyspnea, number (percent) [1]: 1 (9.1)
TEAE edema peripheral, number (percent) [1]: 2 (18.2)
TEAE fatigue, number (percent) [1]: 3 (27.3)
TEAE headache, number (percent) [1]: 0
TEAE insomnia, number (percent) [1]: 1 (9.1)
TEAE nausea, number (percent) [1]: 4 (36.4)
TEAE paronychia, number (percent) [1]: 6 (54.5)
TEAE pyrexia, number (percent) [1]: 1 (9.1)
TEAE rash, number (percent) [1]: 8 (72.7)
TEAE stomatitis, number (percent) [1]: 3 (27.3)
TEAE vomiting, number (percent) [1]: 1 (9.1)
Dose reductions (150 mg BID, first 11 patients): three
Drug discontinuations (150 mg BID, first 11 patients): three
DLTs (150 mg dose level): 4/11
Grade 3 rash (150 mg dose level): one
Pneumonitis, grade (150 mg patient, concurrent Pneumocystis infection): grade 3
Grade 3 or 4 ALT/AST increase (<65 mg BID): one
